# Ab-14 light chain CDR variants: yeast mating affinities

Source: Li et al. 2023 (doi:10.1038/s41467-023-39022-2), MIT Lincoln Laboratory and A-Alpha Bio; data file from the FLAb repository.

The target is the same throughout: PDVDLGDISGINAS, from the HR2 region of SARS-CoV-2 spike.

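The parent was found by panning a naive human phage display library on the peptide. Designed CDR sequences, proposed from the first random library and measured here. Their group label is 14L_Ctrl (Ctrl: baseline library sampled from a position-specific scoring matrix, with some repeated check sequences). In AlphaSeq, yeast of one mating type display the scFv and yeast of the other type display the target. Binding brings cells together so that they mate, and sequencing counts the barcode pairs among the diploids. The ratio of observed to expected reads was calibrated, replicate by replicate, on BCL2-family standards whose Kd was known from biolayer interferometry. Each pool was mated in six replicate cultures.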

The variants keep the heavy chain, the linker and the frameworks of Ab-14 (scFv order VH, three GGGGS repeats, VL).
VH: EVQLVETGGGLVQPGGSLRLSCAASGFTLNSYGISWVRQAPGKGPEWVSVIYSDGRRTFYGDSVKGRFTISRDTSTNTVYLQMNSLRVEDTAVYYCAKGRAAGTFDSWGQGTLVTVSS
VL: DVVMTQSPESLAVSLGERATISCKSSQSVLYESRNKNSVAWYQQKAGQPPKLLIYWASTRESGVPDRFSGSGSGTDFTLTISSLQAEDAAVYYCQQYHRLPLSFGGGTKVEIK

Each variant is given by its three light chain CDRs, as the data file delimits them; those of the parent are KSSQSVLYESRNKNSVA, WASTRES, QQYHRLPLS.
Values are log10 of the apparent Kd in nM; lower means stronger binding.
Replicates are averaged; those with no signal do not enter the mean.
An entry "ND" has no value in the source: the pair was not observed among the diploids in that replicate. This suggests poor binding but is not conclusive.
The parent sequence was in this pool as ten entries: three were never detected, three once, and four in most replicates, with averages from 0.34 to 2.37.
As a blank, each scFv also met three strains without target: over all light chain designs, 4% of these pairings were detected, typically at 2.64 and seldom below 1.59. For each scFv, signals with the empty controls are counted beside the result, with their mean in brackets.
Values of this round are not directly comparable with the first-round values of the same sequences.
In the paper, a design with two or fewer of six values counts as a poor binder.

CDR-L1	CDR-L2	CDR-L3	log10 Kd (nM) by replicate	mean log10 Kd (nM)	control signals
KSSQSVLYESFNKNSVA	WASTRES	QQYHRLPLS	1.74 / 1.73 / 1.76 / 2.36 / 2.13 / 1.40	1.85	0/18
KSSQSGLYESDGKNSVA	WASTREQ	KQYHRLPLS	ND / ND / ND / ND / ND / ND	ND	0/18
KWSQSVLYESRNKNSVA	WASTRES	QQYHRLPLS	1.82 / ND / ND / 1.79 / 1.64 / ND	1.75	4/18 (2.07)
KSSQSVLCESRNKNSIA	SASTRES	QQGHRLPLS	ND / ND / ND / ND / ND / ND	ND	1/18 (1.78)
KISQSVLYESRNKNSVA	EASTRES	QQISRLPLC	0.60 / 0.11 / 0.03 / 0.41 / 0.88 / 0.38	0.40	1/18 (2.65)
KVSQSVLYESRNKNSVA	WASTREM	QQPHRLALS	ND / ND / ND / ND / ND / ND	ND	0/18
KSSQSVLYESRNKNSVA	WASTREQ	QQYHRLPLS	ND / ND / 1.56 / ND / 2.47 / 3.12	2.39	0/18
KSYQSVLKESLNANSVA	DASTRES	QQYHRLPLV	-0.02 / -0.06 / -0.33 / -0.22 / -0.20 / -0.07	-0.15	0/18
KSSQSVLYESRNKNSVA	WASTRED	QRYHRLPLS	ND / ND / ND / ND / ND / ND	ND	0/18
KSSNSVLYESRNKNSVA	AASTRES	QQYHRLPLS	0.53 / 0.79 / 0.83 / 0.47 / 0.70 / 0.81	0.69	0/18
KSSQSVSMESRNKNSVA	WASVRES	QQYHRPPLS	ND / 1.76 / ND / 2.63 / 2.90 / ND	2.43	3/18 (2.19)
KSSQSVLYESRNKNSVA	WASTRES	QQYHRPPLS	ND / ND / ND / ND / 1.71 / ND	1.71	0/18
ESSQSVEYESRNKNSVA	HASMRES	YQYHRLPLS	ND / ND / ND / ND / ND / ND	ND	1/18 (2.62)
KSSQSVLAESRNMNSVA	WASTRES	QQYHRLPLS	1.41 / 1.31 / 1.54 / 1.11 / 1.41 / 1.27	1.34	3/18 (2.79)
KSSQSVLYESRNKNSVA	WASIRES	QNYHRLPLS	ND / ND / ND / ND / 2.80 / ND	2.80	0/18
KYSQSVVYDSRYKNSVA	WASTRES	QEYHRLKLS	0.99 / 1.01 / 1.60 / 1.10 / 1.39 / 1.16	1.21	0/18
KSSQGVLYEMRNKNSVA	WASTRES	QQYHRLPLS	ND / ND / 1.36 / 2.24 / ND / ND	1.80	0/18
KFHQSKLYESRNTNSVA	GASTRES	QQYHRLPLS	0.18 / 0.20 / 0.18 / 0.24 / 0.10 / 0.27	0.19	0/18
KSSQSVLYESTNKNSVA	EASTREP	QQCHRLPLS	0.97 / 0.62 / 0.71 / 0.57 / 1.00 / 0.72	0.77	1/18 (2.33)
KSSQSVLYESRNANSVA	AASLRES	QQYHRLPLS	0.68 / 0.45 / 0.65 / 0.41 / 0.64 / 0.85	0.61	1/18 (2.72)
KISQSVVWESRNKASVA	SASTREH	QQYHRLMLS	ND / ND / ND / ND / ND / ND	ND	0/18
KSSQSVLYESRNKNSVA	AASTRES	NQYHRLPLS	2.19 / 1.73 / 1.62 / 1.94 / 2.37 / 4.68	2.42	0/18
KSSQSALYESRNKNNVA	WASTRES	QQYHRLPLS	0.88 / 1.07 / 1.44 / 0.60 / 0.47 / 1.18	0.94	1/18 (2.62)
KSSQSSLYESRNKNSVA	WASTRYS	QQYHSLPLS	1.71 / 1.39 / 1.30 / 1.16 / 1.00 / 1.01	1.26	1/18 (3.42)
KSSQSVLYESNNKNSVA	YASTRES	QQYHRLPLS	2.35 / 1.92 / 0.91 / 0.94 / 0.42 / 1.27	1.30	1/18 (1.67)
MSSQSVLYESCEKNSVA	WASQRES	QQYARLPLS	ND / 2.38 / ND / ND / ND / ND	2.38	1/18 (2.29)
KSSQSVLYESRHKNSVA	WASTRES	QQYHRLPLS	2.34 / ND / ND / 2.64 / ND / ND	2.49	3/18 (2.98)
KSSQSSLQESRNKNSVA	WATTRES	QQYQRLPLF	ND / ND / ND / 2.69 / ND / ND	2.69	0/18
KSSQSRLEESRNKNSVA	QASTHES	QQYHTLPLS	ND / 1.71 / ND / 1.65 / 3.12 / 2.59	2.27	1/18 (2.41)
KSDQSVLYESPNKNSVA	WASTRLS	QQYHRLGLS	ND / ND / ND / 1.39 / ND / ND	1.39	0/18
KSSQTVLYEMRNKNSVA	WASTRES	QQYHRNPLS	ND / ND / ND / ND / ND / ND	ND	1/18 (1.34)
QSSQSVLYESNNKNSVA	WASTRES	QTYNRLPLM	ND / 1.30 / 1.19 / 1.56 / 1.77 / 2.33	1.63	0/18
KNSQSVLYESRNKNSVA	WASTRES	QQYHRLPLS	ND / 1.90 / ND / ND / 2.88 / 1.75	2.18	0/18
KSVQSVLYESRNKNSVA	WASTREL	QQYHRLPLS	ND / ND / ND / ND / ND / ND	ND	1/18 (1.50)

Again, the first 4 entries without any signal:

| CDR-L1 | CDR-L2 | CDR-L3 | log10 Kd (nM) by replicate | mean log10 Kd (nM) | control signals |
|---|---|---|---|---|---|
| KSSQSGLYESDGKNSVA | WASTREQ | KQYHRLPLS | ND / ND / ND / ND / ND / ND | ND | 0/18 |
| KSSQSVLCESRNKNSIA | SASTRES | QQGHRLPLS | ND / ND / ND / ND / ND / ND | ND | 1/18 (1.78) |
| KVSQSVLYESRNKNSVA | WASTREM | QQPHRLALS | ND / ND / ND / ND / ND / ND | ND | 0/18 |
| KSSQSVLYESRNKNSVA | WASTRED | QRYHRLPLS | ND / ND / ND / ND / ND / ND | ND | 0/18 |